Target: Epidermal growth factor receptor (Homo sapiens, UniProt P00533)
Experiment: Inhibition of wild-type EGFR (unknown origin) using biotinylated TK peptide as substrate measured after 30 mins by HTRF assay

Amino acid sequences for entries named in this document (tags omitted).
UniProt P00533, whole entry: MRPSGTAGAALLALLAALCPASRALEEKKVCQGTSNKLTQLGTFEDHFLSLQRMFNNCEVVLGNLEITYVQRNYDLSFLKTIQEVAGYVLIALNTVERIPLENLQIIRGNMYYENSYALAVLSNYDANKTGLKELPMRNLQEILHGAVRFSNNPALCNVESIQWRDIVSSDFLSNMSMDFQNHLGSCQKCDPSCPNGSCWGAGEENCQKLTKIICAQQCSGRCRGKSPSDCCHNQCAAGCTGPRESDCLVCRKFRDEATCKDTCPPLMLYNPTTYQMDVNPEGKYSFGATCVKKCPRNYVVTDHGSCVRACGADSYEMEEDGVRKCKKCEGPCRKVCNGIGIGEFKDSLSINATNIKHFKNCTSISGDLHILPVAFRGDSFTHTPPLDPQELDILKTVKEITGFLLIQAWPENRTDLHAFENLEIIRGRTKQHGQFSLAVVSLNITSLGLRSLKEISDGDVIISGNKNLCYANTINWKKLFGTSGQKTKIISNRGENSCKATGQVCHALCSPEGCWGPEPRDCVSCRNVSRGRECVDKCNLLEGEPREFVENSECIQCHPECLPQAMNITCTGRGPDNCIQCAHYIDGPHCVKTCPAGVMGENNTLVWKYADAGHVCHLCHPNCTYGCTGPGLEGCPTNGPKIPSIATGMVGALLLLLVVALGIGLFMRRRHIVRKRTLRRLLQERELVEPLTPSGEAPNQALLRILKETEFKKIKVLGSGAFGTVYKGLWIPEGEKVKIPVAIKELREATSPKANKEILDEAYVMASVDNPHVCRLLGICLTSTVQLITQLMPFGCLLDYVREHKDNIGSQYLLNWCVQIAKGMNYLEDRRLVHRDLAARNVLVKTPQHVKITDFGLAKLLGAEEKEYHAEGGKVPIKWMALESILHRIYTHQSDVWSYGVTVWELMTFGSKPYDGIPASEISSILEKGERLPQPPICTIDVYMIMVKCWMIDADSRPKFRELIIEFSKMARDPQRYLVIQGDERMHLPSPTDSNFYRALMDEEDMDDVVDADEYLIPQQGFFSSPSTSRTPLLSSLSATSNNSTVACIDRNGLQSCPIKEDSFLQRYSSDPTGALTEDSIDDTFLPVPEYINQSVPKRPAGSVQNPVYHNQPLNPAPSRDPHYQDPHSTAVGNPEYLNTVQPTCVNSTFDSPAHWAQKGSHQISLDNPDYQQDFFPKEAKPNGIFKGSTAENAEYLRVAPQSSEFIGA

IC50: 13.7 nM
SMILES: C#CCn1cc(-c2ccnc(Nc3cc(NC(=O)C=C)c(N(C)CCN(C)C)cc3OC)n2)c2ccccc21
